Experimental data from article PMC3263372 (Chembiochem, 2011).

Sequences of proteins named here, by UniProt entry; tags and fusion partners are left off. Residues count along the entry.
UniProt P10415, 1-217 limits assumed, species assumed: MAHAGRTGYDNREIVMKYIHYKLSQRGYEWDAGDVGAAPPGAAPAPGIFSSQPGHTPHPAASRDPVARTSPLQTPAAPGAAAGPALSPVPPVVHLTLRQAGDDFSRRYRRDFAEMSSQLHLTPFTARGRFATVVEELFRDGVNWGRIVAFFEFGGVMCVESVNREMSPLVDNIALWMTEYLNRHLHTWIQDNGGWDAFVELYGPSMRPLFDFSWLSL
UniProt Q07817, 1-209 limits assumed: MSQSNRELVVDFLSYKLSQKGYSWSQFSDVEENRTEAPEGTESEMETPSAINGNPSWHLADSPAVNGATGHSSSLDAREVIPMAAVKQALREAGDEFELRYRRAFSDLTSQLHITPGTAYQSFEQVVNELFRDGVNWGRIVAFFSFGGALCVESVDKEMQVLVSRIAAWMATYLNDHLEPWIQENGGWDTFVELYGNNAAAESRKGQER
UniProt Q07820, 171-327 E173D/A193S/T196S/M199L/R201E/S202A/T205A/S206G/K208R limits assumed: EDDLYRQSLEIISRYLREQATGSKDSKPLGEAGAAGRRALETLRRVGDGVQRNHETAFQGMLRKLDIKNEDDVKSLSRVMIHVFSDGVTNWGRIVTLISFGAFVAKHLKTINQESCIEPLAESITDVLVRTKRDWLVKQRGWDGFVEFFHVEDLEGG

Experiments:
Test in all cases: Solution competition SPR
Conditions in all cases: in words
[1] = biological target: Bcl-2 (Homo sapiens, UniProt P10415); format: binding
[2] = biological target: Bcl-xL (Homo sapiens, UniProt Q07817); format: binding
[3] = biological target: Mcl-1 (Homo sapiens, UniProt Q07820, A193S/E173D/K208R/M199L/R201E/S202A/S206G/T196S/T205A); format: binding, human/mouse chimeric

With `CC[C@H](C)[C@H](NC(=O)C[C@H](CCC(=O)O)NC(=O)[C@H](CCCNC(=N)N)NC(=O)[C@H](C)NC(=O)C[C@H](Cc1c[nH]c2ccccc12)NC(=O)[C@H](CCC(N)=O)NC(=O)[C@H](CCC(=O)O)NC(=O)[C@H](CCC(=O)O)NC(C)=O)C(=O)NCC(=O)N[C@@H](C)C(=O)N[C@@H](CCC(N)=O)CC(=O)N[C@@H](CC(C)C)C(=O)N[C@@H](CCCNC(=N)N)C(=O)N[C@@H](CCCNC(=N)N)CC(=O)N[C@@H](CCSC)C(=O)N[C@@H](C)C(=O)N[C@@H](CC(=O)O)C(=O)N[C@@H](CC(=O)O)CC(=O)N[C@@H](CC(C)C)C(=O)N[C@@H](CC(N)=O)C(=O)N[C@@H](C)CC(=O)N[C@@H](CCC(N)=O)C(=O)N[C@@H](Cc1ccc(O)cc1)C(=O)N[C@@H](CCC(=O)O)C(=O)N[C@@H](CCCNC(=N)N)CC(=O)N[C@@H](CCCNC(=N)N)C(N)=O` [α/β-peptide 2] the “binding to Bcl-2 relative to Puma BH3 α-peptide 1” value [1] was “matches”, the “binding to Bcl-xL relative to Puma BH3 α-peptide 1” value [2] was “matches” and the “affinity for Mcl-1 relative to the authentic BH3 domain” value [3] was “considerably lower affinity”.
